In general, Km refers to the substrate concentration at which the rate is half of its maximum. A word on the kcat/Km: it is the second-order rate constant that governs catalysis at low substrate concentration.

Data on 5 substances can be found in publication PMC10310055.

Common to all, as to experiment: purified protein
Details in all cases: pH 8.3

The test system of series [1] is CCCCCC(=O)CC(=O)N[C@H]1CCOC1=O.
For series [2], the system named is CCCC(=O)N[C@H]1CCOC1=O.
The subject of series [3] is CCCCCC(=O)N[C@H]1CCOC1=O.
For series [4], the system named is CCCCCCCCCC(=O)CC(=O)N[C@H]1CCOC1=O.
For series [5], the system named is CCCCCCCC(=O)CC(=O)N[C@H]1CCOC1=O.

Take “SsoPox V82I (Saccharolobus solfataricus P2; V82I)”: the Km in series [1] was found to be 504.9 ± 51 µM; in series [2], 1240 ± 136 µM; in series [3], 373 ± 32 µM; in series [4] it was 127 ± 26 µM; in series [5], 197.8 ± 24 µM. For the same substance, the kcat/Km in series [1] was 1390 M⁻¹ s⁻¹; in series [2] it was 102 M⁻¹ s⁻¹; in series [3], 2150 M⁻¹ s⁻¹; in series [4] it was 5010 M⁻¹ s⁻¹; in series [5], 12400 M⁻¹ s⁻¹.
On to “SsoPox V82I (Saccharolobus solfataricus P2; S279A/V82I)”, for which the Km in series [1] came out at 160.4 ± 31 µM; in series [4] it was 73.67 ± 18 µM; in series [5], 112 ± 16 µM. Further, the kcat/Km came to 17800 M⁻¹ s⁻¹ in series [1], 27600 M⁻¹ s⁻¹ in series [4] and 84600 M⁻¹ s⁻¹ in series [5].
Consider “SsoPox V82I (Saccharolobus solfataricus P2; G264A/V82I)”, for which the Km in series [4] is 95.4 ± 13 µM; in series [5], 617.5 ± 133 µM. Further, the kcat/Km is 4180 M⁻¹ s⁻¹ in series [4] and 3350 M⁻¹ s⁻¹ in series [5].
Regarding “SsoPox V82I (Saccharolobus solfataricus P2; R277A/V82I)”, the Km in series [1] is 168.7 ± 34 µM; in series [4], 69.03 ± 7 µM; in series [5], 91.5 ± 8 µM. Besides, the catalytic efficiency (kcat/Km) amounted to 12200 M⁻¹ s⁻¹ in series [1], 11800 M⁻¹ s⁻¹ in series [4] and 56600 M⁻¹ s⁻¹ in series [5].
Consider “SsoPox V82I (Saccharolobus solfataricus P2; V82I/W263A)”, for which, in series [4], the Km was determined as 106.7 ± 19 µM and the specificity constant (kcat/Km) worked out at 224000 M⁻¹ s⁻¹. Also, in series [5], the Michaelis-Menten constant (Km) worked out at 297.6 ± 29 µM and the kcat/Km turned out to be 24500 M⁻¹ s⁻¹.
